Reference: ChEMBL document CHEMBL1149301, “Benzoyl ring halogenated classical 2-amino-6-methyl-3,4-dihydro-4-oxo-5-substituted thiobenzoyl-7H-pyrrolo[2,3-d]pyrimidine antifolates as inhibitors of thymidylate synthase and as antitumor agents” (J Med Chem, 2004)

Sequences of proteins named here, by UniProt entry; tags and fusion partners are left off. A change or cut given only in a name is not applied to a line headed by its entry.
UniProt C3SWJ7, whole entry: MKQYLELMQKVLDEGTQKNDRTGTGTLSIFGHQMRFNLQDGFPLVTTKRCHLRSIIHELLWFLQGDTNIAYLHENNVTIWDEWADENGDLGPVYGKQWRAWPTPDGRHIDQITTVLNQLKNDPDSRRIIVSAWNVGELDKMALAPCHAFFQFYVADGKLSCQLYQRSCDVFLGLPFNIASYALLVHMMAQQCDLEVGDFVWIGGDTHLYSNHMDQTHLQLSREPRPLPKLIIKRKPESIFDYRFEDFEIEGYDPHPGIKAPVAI
UniProt P04818: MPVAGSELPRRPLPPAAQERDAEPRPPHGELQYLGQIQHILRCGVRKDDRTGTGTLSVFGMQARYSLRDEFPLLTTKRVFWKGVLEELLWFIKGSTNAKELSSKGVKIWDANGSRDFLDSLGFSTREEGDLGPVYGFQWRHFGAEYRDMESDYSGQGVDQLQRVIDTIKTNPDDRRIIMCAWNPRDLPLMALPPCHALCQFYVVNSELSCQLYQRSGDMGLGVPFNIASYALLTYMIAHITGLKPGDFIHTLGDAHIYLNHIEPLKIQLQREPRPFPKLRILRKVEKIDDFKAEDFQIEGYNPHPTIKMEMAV

Key:
[1] = target: Thymidylate synthase (Escherichia coli, UniProt C3SWJ7); assay: Inhibition of Escherichia coli thymidylate synthase
[2] = target: Thymidylate synthase (Homo sapiens, UniProt P04818)

## Nc1nc2[nH]cc(CCc3ccc(C(=O)N[C@@H](CCC(=O)O)C(=O)O)cc3)c2c(=O)[nH]1 [PEMETREXED]
[1]
  IC50: 76 µM
[2]
  IC50: 9.5 µM
